From PubChem BioAssay (NCI)
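Briefly, cells in 96-well plates were exposed to five compound concentrations for 48 h, and endpoints were estimated by linear interpolation. Here, GI50 denotes the concentration required for 50% inhibition of growth. At the TGI there is no net growth.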

Assays:
Test in all cases: growth of human tumour cells (NCI), 48 h; in the data active = GI50 below about 0.43 µM; inactive = the rest
[1] = test system: EKVX NSCLC
[2] = test system: K-562 leukemia
[3] = test system: A549 NSCLC
[4] = test system: T-47D breast
[5] = test system: HS 578T breast
[6] = test system: SK-MEL-2 melanoma
[7] = test system: 786-0 renal
[8] = test system: SW-620 colon
[9] = test system: NCI-H460 lung
[10] = test system: MDA-N
[11] = test system: OVCAR-3 ovarian
[12] = test system: MDA-MB-231 breast
[13] = test system: RPMI-8226 leukemia
[14] = test system: SF-539 CNS
[15] = test system: MOLT-4 leukemia
[16] = test system: LOX IMVI melanoma
[17] = test system: NCI/ADR-RES ovarian
[18] = test system: SF-268 CNS
[19] = test system: NCI-H226 lung
[20] = test system: M14 melanoma
[21] = test system: SNB-75 CNS
[22] = test system: DU-145 prostate
[23] = test system: A498 renal
[24] = test system: HCT-116 colon
[25] = test system: CAKI-1 renal
[26] = test system: HOP-92 NSCLC
[27] = test system: SK-MEL-28 melanoma
[28] = test system: UACC-257 melanoma
[29] = test system: U251 CNS
[30] = test system: SF-295 CNS
[31] = test system: OVCAR-4 ovarian
[32] = test system: SK-OV-3 ovarian
[33] = test system: ACHN renal
[34] = test system: CCRF-CEM leukemia
[35] = test system: RXF 393 renal
[36] = test system: NCI-H23 lung
[37] = test system: KM12 colon
[38] = test system: HCT-15 colon
[39] = test system: OVCAR-8 ovarian
[40] = test system: TK-10 renal
[41] = test system: MCF7 breast
[42] = test system: HT29 colon
[43] = test system: MALME-3M melanoma
[44] = test system: UO-31 renal
[45] = test system: HOP-62 NSCLC
[46] = test system: COLO 205 colon
[47] = test system: NCI-H522 lung
[48] = test system: NCI-H322M lung
[49] = test system: BT-549 breast
[50] = test system: PC-3 prostate
[51] = test system: UACC-62 melanoma
[52] = test system: HL-60(TB) leukemia
[53] = test system: MDA-MB-435
[54] = test system: SR leukemia
[55] = test system: SK-MEL-5 melanoma
[56] = test system: SN12C renal
[57] = test system: SNB-19 CNS
[58] = test system: IGROV1 ovarian
[59] = test system: OVCAR-5 ovarian

[N-]=[N+]=Nc1ccc([As](=O)(O)O)cc1
inactive: GI50 [1] > 100 µM | GI50 [2] > 100 µM | GI50 [3] > 100 µM | GI50 [4] > 100 µM | GI50 [5] > 100 µM | GI50 [6] > 100 µM | GI50 [7] > 100 µM | GI50 [8] > 100 µM | GI50 [9] > 100 µM | GI50 [10] > 100 µM | GI50 [11] > 100 µM | GI50 [12] > 100 µM | GI50 [13] > 100 µM | GI50 [14] > 100 µM | GI50 [15] > 100 µM | GI50 [16] > 100 µM | GI50 [17] > 100 µM | GI50 [18] > 100 µM | GI50 [19] > 100 µM | GI50 [20] > 100 µM | GI50 [21] > 100 µM | GI50 [22] > 100 µM | GI50 [23] > 100 µM | GI50 [24] > 100 µM | GI50 [25] > 100 µM | GI50 [26] > 100 µM | GI50 [27] > 100 µM | GI50 [28] > 100 µM | GI50 [29] > 100 µM | GI50 [30] > 100 µM | GI50 [31] > 100 µM | GI50 [32] > 100 µM | GI50 [33] > 100 µM | GI50 [34] > 100 µM | GI50 [35] > 100 µM | GI50 [36] > 100 µM | GI50 [37] > 100 µM | GI50 [38] > 100 µM | GI50 [39] > 100 µM | GI50 [40] > 100 µM | GI50 [41] > 100 µM | GI50 [42] > 100 µM | GI50 [43] > 100 µM | GI50 [44] > 100 µM | GI50 [45] > 100 µM | GI50 [46] > 100 µM | GI50 [47] > 100 µM | GI50 [48] > 100 µM | GI50 [49] > 100 µM | GI50 [50] > 100 µM | GI50 [51] > 100 µM | GI50 [52] > 100 µM | GI50 [53] > 100 µM | GI50 [54] > 100 µM | GI50 [55] > 100 µM | GI50 [56] > 100 µM | GI50 [57] > 100 µM | GI50 [58] > 100 µM | GI50 [59] > 100 µM
> 100 µM: TGI [1] | TGI [2] | TGI [3] | TGI [4] | TGI [5] | TGI [6] | TGI [7] | TGI [8] | TGI [9] | TGI [10] | TGI [11] | TGI [12] | TGI [13] | TGI [14] | TGI [15] | TGI [16] | TGI [17] | TGI [18] | TGI [19] | TGI [20] | TGI [21] | TGI [22] | TGI [23] | TGI [24] | TGI [25] | TGI [26] | TGI [27] | TGI [28] | TGI [29] | TGI [30] | TGI [31] | TGI [32] | TGI [33] | TGI [34] | TGI [35] | TGI [36] | TGI [37] | TGI [38] | TGI [39] | TGI [40] | TGI [41] | TGI [42] | TGI [43] | TGI [44] | TGI [45] | TGI [46] | TGI [47] | TGI [48] | TGI [49] | TGI [50] | TGI [51] | TGI [52] | TGI [53] | TGI [54] | TGI [55] | TGI [56] | TGI [57] | TGI [58] | TGI [59]
